# Measurements taken from US20100047228.
# Experiments:
# [1] = test system: delta-plasminogen
# [2] = test system: full-length plasminogen
substance,measurement,setting,value
urokinase,"Km (µM), urokinase activation",[1],30 µM
same,"Km for urokinase activation, fold against plasminogen",[1],approximately 30-fold higher than for plasminogen
same,"kcat (min^-1), urokinase activation",[1],80 min⁻¹
same,"kcat/Km (µM^-1min^-1), urokinase activation",[1],2.67 µM⁻¹ min⁻¹
same,"Km (µM), urokinase activation",[2],1.2 µM
same,"kcat (min^-1), urokinase activation",[2],2.3 min⁻¹
same,"kcat/Km (µM^-1min^-1), urokinase activation",[2],1.92 µM⁻¹ min⁻¹
